A selection: hits, their analogues and other compounds. The true share with any hit is near 2.9%.
Rango complex inh: qHTS Assay for Inhibitors of Rango (Ran-regulated importin-beta cargo) - Importin beta complex formation | Rango CFP/YFP FRET sensor + importin beta, 45 min | 340,000 tested, 0.031% active | Potency, µM (doses to about 92.2 µM), inactives show at the top dose inhibition of complex formation | AID 540263, 2011;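 note: potency is the fitted concentration of half-maximal effect; 0% = DMSO wells and 100% = buffer wells lacking importin beta; nearly all actives have a fitted effect of over 15% in size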
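FRET biosensor Rango (snurportin 1 IBB between N-terminal EYFP and C-terminal Cerulean), 50 nM in PBS/1 mM DTT/0.02% Tween-20/0.1% BSA, preincubated 5 min RT with compound; 0.125 microM importin beta added, 45 min RT, CFP/YFP FRET ratio read.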
PTAP TSG101 blk: qHTS Assay for Iinhibitors of HIV-1 Budding by Blocking the Interaction of PTAP/TSG101 | Fluorescence polarization, FITC-PTAP peptide / Tsg101 binding | Potency, µM (highest dose often 115 µM), without a hit: at the top dose activity change, negative = inhibition, usual class: inhibitors | 340,000 tested, under 10 active | AID 493005, 2010; active = well fitted inhibition curve with a large enough effect in the main read-out, with a control signal flat, not every such curve was filed as active; inconclusive = small, poorly fitted or top-dose-only effect, or effect the other way, or a change in a side signal; inactive = no such curve, though single readings can be large or run the other way; note: potency is the fitted concentration of half-maximal effect; % of control where 0% means no effect
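Fluorescence polarization binding of Tsg101 binding domain (10 uM final) to FITC-labeled PTAP peptide (50 nM final) in HEPES pH 7.5 buffer with NaCl, Tween 20, EDTA, TCEP. Compounds added before peptide; binding 20 min at RT.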
D3 antag: qHTS of D3 Dopamine Receptor Antagonist: qHTS. D(3) dopamine receptor (Homo sapiens), P35462. D3R cells, DiscoveRx beta-arrestin luminescence, antagonist mode; hits give low values. max response, negative = inhibition, %. 360,000 tested, 2.5% active. AID 652054, 2013; in the data active = max response below about -50%; inconclusive = no clear call, values can overlap the other calls; note: % is set by controls: 0 for no effect and ±100 for the full control effect
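Cells plated overnight at 1500 cells/well, then exposed to library compounds with dopamine controls for 90 minutes at 37 degrees C. DiscoveRx reagent added for 30–60 minutes at room temperature; luminescence read, quantitative HTS format.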
Rango dissoc inh: qHTS Assay for Inhibitors of RanGTP induced Rango (Ran-regulated importin-beta cargo) - Importin beta complex dissociation. Biochemical FRET Rango-importin beta, RanGTP-induced dissociation. Potency, µM (doses to about 46.1 µM), inactives show at the top dose activity change, negative = inhibition. 340,000 tested, 0.071% active. AID 540253, 2011; note: potency is the fitted concentration of half-maximal effect; % of control where 0% means no effect; nearly all actives have a fitted effect of over 45% in size
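Compounds preincubate 5 min with complex of recombinant Rango and importin beta in PBS with 1 mM DTT. Ran (0.6 uM) loaded with 2 mM GTP plus 0.2 uM RCC1 starts dissociation; FRET is recorded 45 min later.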
Mm-Cpn inhibitor: Inhibitors of TCP-1 ring complex (TRiC) of Methanococcus maripaludis (MmCpn): qHTS | purified Mm-Cpn ATPase, ADP Transcreener TR-FRET | Potency, µM (titrated, usually from 76.9 µM), for inactives: top-dose activity, negative = inhibition, most hits filed as inhibitors | 330,000 tested, 0.031% active; active = well fitted inhibition curve with a large enough effect; inconclusive = small, poorly fitted or top-dose-only effect; note: potency is the fitted concentration of half-maximal effect; % is set by controls: 0 for no effect and ±100 for the full control effect; nearly all actives have a fitted effect of over 80% in size
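Quantitative HTS used 25 nM Mm-CPN and 10 uM ATP in magnesium/KCl Tris buffer, pH 7.4, with 1 mM DTT. Hydrolysis ran 30 min at 37°C; ADP was read by HTRF.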
DRD3 agonist: qHTS of D3 Dopamine Receptor Agonist: qHTS; 410,000 tested, 0.58% active; D(3) dopamine receptor (Homo sapiens), P35462; max activation, %; D3R DiscoveRx beta-arrestin cells, luminescence, 90 min; in the data active = max activation above about 30%; note: 0% is about no effect
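Agonist-mode cell screen: cells plated at 1500/well and incubated overnight at 37 °C, then exposed to library compounds for 90 min at 37 °C. Detection reagent was added for 30–60 min at room temperature, and luminescence was read.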
An asterisk follows results filed as active; ? = inconclusive; . = no result; ! = repeats disagree; [ ] = remark or other dose. Unless noted, calls come from the whole dose curve.

Sequences of proteins named here, by UniProt entry; tags and fusion partners are left off.
D(3) dopamine receptor (Homo sapiens), P35462, UniProt P35462, whole entry, looked up: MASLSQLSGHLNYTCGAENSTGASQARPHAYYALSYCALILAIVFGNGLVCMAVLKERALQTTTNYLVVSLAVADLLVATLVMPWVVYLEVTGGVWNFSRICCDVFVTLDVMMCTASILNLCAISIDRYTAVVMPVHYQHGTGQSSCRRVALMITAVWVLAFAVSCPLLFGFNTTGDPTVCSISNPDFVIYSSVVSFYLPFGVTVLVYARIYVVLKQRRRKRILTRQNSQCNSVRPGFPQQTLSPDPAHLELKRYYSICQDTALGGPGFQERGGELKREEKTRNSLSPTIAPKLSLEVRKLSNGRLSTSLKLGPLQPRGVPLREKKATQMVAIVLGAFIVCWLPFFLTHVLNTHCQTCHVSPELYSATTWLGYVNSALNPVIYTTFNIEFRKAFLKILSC

SMILES	Rango complex inh	PTAP TSG101 blk	D3 antag	Rango dissoc inh	Mm-Cpn inhibitor	DRD3 agonist
CC1CCN(C(=O)CCCN2C(=O)c3cccnc3Oc3ccc(Cl)cc32)CC1	-3%	-5%	-65*	12%	3%	-16
Brc1ccc(-c2ccc(CNCc3ccccn3)o2)cc1	5%	-2%	-74*	-12%	-13%	-20
COc1ccc(N(CC(=O)N2CCN(Cc3ccc4c(c3)OCO4)CC2)S(=O)(=O)c2ccc(F)cc2)cc1	0%	-5%	-51*	5%	-2%	-18
O=C(CN(c1ccccc1)S(=O)(=O)c1ccccc1)N1CCN(Cc2ccc3c(c2)OCO3)CC1	-6%	-8%	-67*	0%	-2%	-20
Cc1ccc(-c2ccc(CCC(=O)O)n2-c2cccc(C)c2C)cc1	.	.	.	.	.	0
CCOC(=O)c1sc2ccccc2c1OC(=O)c1ccc(C)cc1	5%	-8%	43	10%	4%	35*
CCOC(=O)c1ccc(NC(=O)c2sc3ccccc3c2Cl)cc1	.	.	.	.	.	6
C/C(=N\OCc1nc2ccccc2c(=O)n1/N=C/c1cc(C)cc([N+](=O)[O-])c1O)c1ccccc1	2%	-3%	-6	2%	2%	2
Cc1cc(/C=N/n2cnnc2)c(O)c([N+](=O)[O-])c1	0%	-4%	-63*	-5%	-1%	-20
CCCCSc1nc(C)c(C(C)=O)cc1C#N	3%	-3%	-52*	18%	0%	-5
CC(C)C(=O)N1CCN(c2ccc(NC(=O)c3ccc([N+](=O)[O-])o3)cc2)CC1	0%	-3%	?	1%	-8%	-7
Cc1ccccc1C(=O)N1CCN(c2ccc(NC(=O)c3ccc([N+](=O)[O-])o3)cc2)CC1	5%	-2%	-72*	-5%	5%	-9
O=C(Nc1ccc(N2CCN(C(=O)c3ccccc3)CC2)cc1)c1ccc([N+](=O)[O-])o1	0%	-4%	-56*	-10%	3%	-16
O=C(Nc1ccc(F)c(Cl)c1)N1CC=C(c2c[nH]c3ccccc23)CC1	.	.	.	.	.	2
Cc1ccc(C(=O)N/N=C\c2cc3c(cc2Br)OCO3)s1	0%	-2%	-66*	0%	0%	-35
FC(F)(F)c1ccc2c(c1)ncc1c(-c3ccccc3)nn(-c3ccccc3)c12	.	.	.	.	.	-5
COc1ccc(NC(=O)NCCN2CCc3ccccc3C2)cc1	0%	-1%	-83*	0%	0%	-16
CSc1ccc(NC(=O)NCCN2CCc3ccccc3C2)cc1	-1%	-9%	-61*	8%	-1%	-30
O=C(NCCCN1CCN(c2ccc(F)cc2)CC1)Nc1ccc(Cl)cc1	.	.	.	.	.	-19
O=C(NCCCN1CCc2ccccc2C1)Nc1ccc(Cl)cc1	-1%	-1%	-92*	2%	-1%	-38

A second format for some results above.
> CSc1ccc(NC(=O)NCCN2CCc3ccccc3C2)cc1
  Rango complex inh: -1% | PTAP TSG101 blk: -9% | D3 antag: -61* | Rango dissoc inh: 8% | Mm-Cpn inhibitor: -1% | DRD3 agonist: -30
> O=C(NCCCN1CCN(c2ccc(F)cc2)CC1)Nc1ccc(Cl)cc1
  Rango complex inh: . | PTAP TSG101 blk: . | D3 antag: . | Rango dissoc inh: . | Mm-Cpn inhibitor: . | DRD3 agonist: -19

Returning to the listing, repeating the 5 entries before the break.
SMILES	Rango complex inh	PTAP TSG101 blk	D3 antag	Rango dissoc inh	Mm-Cpn inhibitor	DRD3 agonist
FC(F)(F)c1ccc2c(c1)ncc1c(-c3ccccc3)nn(-c3ccccc3)c12	.	.	.	.	.	-5
COc1ccc(NC(=O)NCCN2CCc3ccccc3C2)cc1	0%	-1%	-83*	0%	0%	-16
CSc1ccc(NC(=O)NCCN2CCc3ccccc3C2)cc1	-1%	-9%	-61*	8%	-1%	-30
O=C(NCCCN1CCN(c2ccc(F)cc2)CC1)Nc1ccc(Cl)cc1	.	.	.	.	.	-19
O=C(NCCCN1CCc2ccccc2C1)Nc1ccc(Cl)cc1	-1%	-1%	-92*	2%	-1%	-38
CCOC(=O)c1ccccc1NC(=O)N(Cc1ccco1)C1CCN(C(C)=O)CC1	.	.	.	.	.	-18
CCCCN(C)C(=O)c1nc2ccccn2c1CN1CCN(C(=O)c2cccs2)CC1	4%	-12%	4	-14%	-2%	2
O=C(CSc1ccccn1)N1CCN(C(=O)CSc2ccccn2)CC1	65µM*	-3%	10	-4%	-1%	4
CCc1ccc2c(c1)N(CC(C)CN(C)C)c1ccccc1S2 (stereo unspecified)	.	.	.	.	.	-20
C#C[C@]1(O)CC[C@H]2[C@@H]3CCc4cc(OC5CCCC5)ccc4[C@H]3CC[C@@]21C	3%	0%	84	7%	-1%	10
C#C[C@]1(O)CC[C@H]2[C@@H]3CCc4cc(OC)ccc4[C@H]3CC[C@@]21C	-1%	-1%	79	2%	1%[15.4 µM]	30*!
Cc1cc(CN2CCC(N3CCC(C(=O)NC4CC4)CC3)CC2)cc(C)c1O	-4%	0%	21	-7%	-2%	-2
O=C1[C@H]2CCCC[C@H]2C(=O)N1CCCCN1CCN(c2nsc3ccccc23)CC1	-2%	0%	-116*	1%	.	-57
C(=C\c1nccc2c1[nH]c1ccccc12)/c1ccccc1	?	-1%	-5	16µM*	-3%	0
COc1ccc(/C=C/C(=O)c2c(C)nc3ccccn23)cc1	-2%	-5%	16	-2%	-1%	38*
CCOC(=O)c1c(C)oc2nc(C)nc(NCc3cccc(Cl)c3)c12	.	.	.	.	.	1
COc1ccc2c(c1)CC(C(=O)NCCCN1CCN(c3ccc(F)cc3)CC1)CO2 (stereo unspecified)	.	.	.	.	.	-16
COCCCNc1nc2c(S(=O)(=O)c3ccccc3)nnn2c2ccc(Cl)cc12	.	.	.	.	.	2
Oc1c(C=Nc2ccccc2)sc2ccccc12	?	?	-19	?	-2%	-6
Oc1c(C=NCc2ccncc2)sc2ccccc12	?	-2%	-100*	?	0%	5
CN=Cc1sc2ccccc2c1O	?	-6%	8	?	-11%	0
Oc1c(C=Nc2cccnc2)sc2ccccc12	?	4%	-65*	?	-6%	-4
Cc1nc(-c2cccc(NC(=O)Nc3ccc([N+](=O)[O-])cc3)c2)no1	.	.	.	.	.	-2
COc1ccc2ccccc2c1CN1CCCC(CO)C1 (stereo unspecified)	-1%	-4%	-9	27%	1%	-4
COc1ccccc1CN1CCN(Cc2ccc3ccccc3c2)CC1	0%	0%	-90*	-6%	1%	-2
COc1ccc(CN2CCN(Cc3ccc4ccccc4c3)CC2)cc1OC	4%	2%	-76*	14%	-2%	-49
COc1ccc2ccccc2c1CN1CCN(Cc2ccccc2)CC1	0%	-5%	-71*	14%	1%	-30
O/N=C/c1ccc(-c2cc(Cl)ccc2Cl)o1	0%	0%	9	5%	1%	1
Clc1ccc(Cl)c(-c2ccc(/C=N/c3ncn[nH]3)o2)c1	3%	-11%	12	2%	-15%	32*
CCCOCc1cc(CN2CCN(c3cccc(Cl)c3)CC2)c(O)c2ncccc12	.	.	.	.	.	-16
Clc1ccc(N2CCN(Cc3c[nH]c4ncccc34)CC2)cc1	0%	0%	-78*	2%	0%	.
CC(C)(C)c1ccc(CN2C3=NCCCN3c3ccccc32)cc1	-6%	-8%	-63*	-10%	-1%	-1

Source: PubChem BioAssay (National Center for Advancing Translational Sciences (NCATS))
